Measured values published in patent US20220304309A1, “IRON COMPLEXES AND USES THEREFOR” (priority 2019, published 2022).

Assay: Total, ferrous and ferric iron content of the complexes immediately after preparation (1,10-phenanthroline)
Settings: 50 mM solution

Row | Compound | Oxidation state of the iron immediately after preparation
1 | O=C([O-])CC(O)(CC(=O)[O-])C(=O)[O-].O=C([O-])CC(O)(CC(=O)[O-])C(=O)[O-].[Fe+2].[Fe+2].[Fe+2] [tri-ferrous di-citrate] | essentially all the iron was in the ferrous oxidation state
2 | ferrous di-pyruvate | essentially all the iron was in the ferrous oxidation state
